{"source": "patent US10098962B2", "about": "“Glycosaminoglycan derivative and method for producing same” (Seikagaku Corporation, priority 2013, dated 2018)", "key": {"[1]": {"test": "Release test for conjugates obtained from Examples 22 to 25 (Test Example A6)", "type": "physicochemical", "settings": "0.1% in 20 mM sodium phosphate buffer pH 7.0, 36°C", "source_text": "(§1) The amount of the dissociated diclofenac component which is present in an initial state (storage: Day 0) immediately after the dissolution, and the amount of diclofenac ester which has been forced to dissociate by using a base were subjected to quantitative analysis based on ODS-HPLC. […] From the ratio between the obtained amount of the dissociated diclofenac component at each time point and the amount of dissociated diclofenac component resulting from forced dissociation, the dissociation ratio (%) was calculated. For a pre-treatment of a HPLC sample, OASIS HLB was used, and a fraction eluted by acetonitrile was analyzed. HPLC conditions are as follows. column: […] flow rate: 1 mL/min temperature: 35° C."}, "[2]": {"test": "Release test for conjugates obtained from Examples 15 to 17 (Test Example A4)", "type": "physicochemical", "settings": "0.1% in 20 mM sodium phosphate buffer pH 7.0, 36°C", "source_text": "as §1"}, "[3]": {"test": "Release test for conjugates obtained from Examples 26 to 28, citrate buffer pH 5.1 (Test Example A7)", "type": "physicochemical", "experimental": "The amount of the dissociated diclofenac component which is present in a solution in an initial state (storage: Day 0) immediately after the dissolution was subjected to quantitative analysis based on ODS-HPLC. […] Meanwhile, the method for pre-treatment of HPLC sample is described below. Methanol (1 mL) was added to the stored solution (1 g). After dilution and addition of acetonitrile to 20 mL, the hyaluronic acid component was allowed to precipitate. The obtained supernatant was used as a HPLC sample. HPLC conditions are as follows. column: […] flow rate: 1 mL/min temperature: 35° C."}, "[4]": {"test": "Release test for conjugates obtained from Examples 26 and 32 at 60, 40, 25°C (Test Example A9)", "type": "physicochemical", "experimental": "The amount of the dissociated diclofenac component which is present in a solution in an initial state (storage: Day 0) immediately after the dissolution was subjected to quantitative analysis based on ODS-HPLC. Other aliquot was stored at 60° C., 40° C., or 25° C. immediately after the dissolution, the decomposition amount of diclofenac ester was similarly subjected to quantitative analysis after lapse of the each designated time. From the ratio between the obtained amount of the dissociated diclofenac component at each time point and the amount of dissociated diclofenac component resulting from forced dissociation, the dissociation ratio (%) was calculated. For a pre-treatment of a HPLC sample, OASIS HLB was used, and a fraction eluted by acetonitrile was analyzed. HPLC conditions are as follows. column: […] flow rate: 1 mL/min temperature: 35° C."}, "[5]": {"test": "Release test for conjugates obtained from Examples 18 to 21 (Test Example A5)", "type": "physicochemical", "settings": "0.1% in 20 mM sodium phosphate buffer pH 7.0, 36°C", "source_text": "The amount of the dissociated diclofenac component which is present in an initial state (storage: Day 0) immediately after the dissolution, and the amount of diclofenac ester which has been forced to dissociate by using a base were subjected to quantitative analysis based on ODS-HPLC. […] From the ratio between the obtained amount of the dissociated diclofenac component at each time point and the amount of dissociated diclofenac component resulting from forced dissociation, the dissociation ratio (%) was calculated. For a pre-treatment of a HPLC sample, OASIS HLB was used, and a fraction eluted by acetonitrile was analyzed. HPLC conditions are as follows. column: […] temperature: 35° C."}}, "note": "Like-named read-outs stand apart in the source and are kept apart here.", "data": [{"substance": "21-alanyl-betamethasone Introduced chondroitin sulfate [Compound 29-3]", "values": [{"measurement": "drug dissociation ratio", "setting": "pH7.4, 36°C, day 0", "result": 0.4, "unit": "%"}, {"measurement": "drug dissociation ratio", "setting": "pH7.4, 36°C, day 1", "result": 2.0, "unit": "%"}, {"measurement": "drug dissociation ratio", "setting": "pH7.4, 36°C, day 2", "result": 3.6, "unit": "%"}, {"measurement": "drug dissociation ratio", "setting": "pH7.4, 36°C, day 3", "result": 5.3, "unit": "%"}, {"measurement": "drug dissociation ratio", "setting": "pH7.4, 36°C, day 4", "result": 8.7, "unit": "%"}, {"measurement": "drug dissociation ratio", "setting": "pH7.4, 36°C, day 5", "result": 11.0, "unit": "%"}, {"measurement": "drug dissociation ratio", "setting": "pH7.4, 36°C, day 6", "result": 12.2, "unit": "%"}, {"measurement": "drug dissociation ratio", "setting": "pH7.4, 36°C, day 7", "result": 11.5, "unit": "%"}, {"measurement": "drug dissociation ratio", "setting": "pH8.0, 36°C, day 0", "result": 1.7, "unit": "%"}, {"measurement": "drug dissociation ratio", "setting": "pH8.0, 36°C, day 1", "result": 6.3, "unit": "%"}, {"measurement": "drug dissociation ratio", "setting": "pH8.0, 36°C, day 2", "result": 10.9, "unit": "%"}, {"measurement": "drug dissociation ratio", "setting": "pH8.0, 36°C, day 3", "result": 16.1, "unit": "%"}, {"measurement": "drug dissociation ratio", "setting": "pH8.0, 36°C, day 4", "result": 21.7, "unit": "%"}, {"measurement": "drug dissociation ratio", "setting": "pH8.0, 36°C, day 5", "result": 26.1, "unit": "%"}, {"measurement": "drug dissociation ratio", "setting": "pH8.0, 36°C, day 6", "result": 28.3, "unit": "%"}, {"measurement": "drug dissociation ratio", "setting": "pH8.0, 36°C, day 7", "result": 29.3, "unit": "%"}]}, {"substance": "21-glycyl-betamethasone Introduced chondroitin sulfate [Compound 30-3]", "values": [{"measurement": "drug dissociation ratio", "setting": "pH7.4, 36°C, day 0", "result": 1.1, "unit": "%"}, {"measurement": "drug dissociation ratio", "setting": "pH7.4, 36°C, day 1", "result": 5.7, "unit": "%"}, {"measurement": "drug dissociation ratio", "setting": "pH7.4, 36°C, day 2", "result": 9.3, "unit": "%"}, {"measurement": "drug dissociation ratio", "setting": "pH7.4, 36°C, day 3", "result": 11.0, "unit": "%"}, {"measurement": "drug dissociation ratio", "setting": "pH7.4, 36°C, day 4", "result": 15.4, "unit": "%"}, {"measurement": "drug dissociation ratio", "setting": "pH7.4, 36°C, day 5", "result": 19.6, "unit": "%"}, {"measurement": "drug dissociation ratio", "setting": "pH7.4, 36°C, day 6", "result": 22.1, "unit": "%"}, {"measurement": "drug dissociation ratio", "setting": "pH7.4, 36°C, day 7", "result": 22.0, "unit": "%"}, {"measurement": "drug dissociation ratio", "setting": "pH8.0, 36°C, day 0", "result": 4.3, "unit": "%"}, {"measurement": "drug dissociation ratio", "setting": "pH8.0, 36°C, day 1", "result": 14.4, "unit": "%"}, {"measurement": "drug dissociation ratio", "setting": "pH8.0, 36°C, day 2", "result": 23.5, "unit": "%"}, {"measurement": "drug dissociation ratio", "setting": "pH8.0, 36°C, day 3", "result": 29.3, "unit": "%"}, {"measurement": "drug dissociation ratio", "setting": "pH8.0, 36°C, day 4", "result": 37.8, "unit": "%"}, {"measurement": "drug dissociation ratio", "setting": "pH8.0, 36°C, day 5", "result": 44.7, "unit": "%"}, {"measurement": "drug dissociation ratio", "setting": "pH8.0, 36°C, day 6", "result": 48.7, "unit": "%"}, {"measurement": "drug dissociation ratio", "setting": "pH8.0, 36°C, day 7", "result": 50.6, "unit": "%"}]}, {"substance": "diclofenac (1-amino-2-butanol)-hyaluronic acid [Example A6-2]", "values": [{"measurement": "diclofenac dissociation ratio", "setting": "[1]; day 0", "result": 0.0, "unit": "%"}, {"measurement": "diclofenac dissociation ratio", "setting": "[1]; day 1", "result": 0.6, "unit": "%"}, {"measurement": "diclofenac dissociation ratio", "setting": "[1]; day 2", "result": 1.2, "unit": "%"}, {"measurement": "diclofenac dissociation ratio", "setting": "[1]; day 4", "result": 2.2, "unit": "%"}, {"measurement": "diclofenac dissociation ratio", "setting": "[1]; day 8", "result": 4.5, "unit": "%"}]}, {"substance": "diclofenac (1-amino-2-propanol)-chondroitin sulfate [Example A4-1]", "values": [{"measurement": "diclofenac dissociation ratio", "setting": "[2]; day 0", "result": 0.0, "unit": "%"}, {"measurement": "diclofenac dissociation ratio", "setting": "[2]; day 1", "result": 0.7, "unit": "%"}, {"measurement": "diclofenac dissociation ratio", "setting": "[2]; day 2", "result": 1.1, "unit": "%"}, {"measurement": "diclofenac dissociation ratio", "setting": "[2]; day 4", "result": 1.8, "unit": "%"}, {"measurement": "diclofenac dissociation ratio", "setting": "[2]; day 8", "result": 3.0, "unit": "%"}]}, {"substance": "21-isoleucyl-betamethasone Introduced chondroitin sulfate [Compound 31-3]", "values": [{"measurement": "drug dissociation ratio", "setting": "pH7.4, 36°C, day 0", "result": 0.5, "unit": "%"}, {"measurement": "drug dissociation ratio", "setting": "pH7.4, 36°C, day 1", "result": 0.2, "unit": "%"}, {"measurement": "drug dissociation ratio", "setting": "pH7.4, 36°C, day 2", "result": 0.2, "unit": "%"}, {"measurement": "drug dissociation ratio", "setting": "pH7.4, 36°C, day 3", "result": 0.2, "unit": "%"}, {"measurement": "drug dissociation ratio", "setting": "pH7.4, 36°C, day 4", "result": 1.5, "unit": "%"}, {"measurement": "drug dissociation ratio", "setting": "pH7.4, 36°C, day 5", "result": 2.1, "unit": "%"}, {"measurement": "drug dissociation ratio", "setting": "pH7.4, 36°C, day 6", "result": 1.9, "unit": "%"}, {"measurement": "drug dissociation ratio", "setting": "pH7.4, 36°C, day 7", "result": 0.6, "unit": "%"}, {"measurement": "drug dissociation ratio", "setting": "pH8.0, 36°C, day 0", "result": 0.0, "unit": "%"}, {"measurement": "drug dissociation ratio", "setting": "pH8.0, 36°C, day 1", "result": 0.5, "unit": "%"}, {"measurement": "drug dissociation ratio", "setting": "pH8.0, 36°C, day 2", "result": 0.7, "unit": "%"}, {"measurement": "drug dissociation ratio", "setting": "pH8.0, 36°C, day 3", "result": 1.1, "unit": "%"}, {"measurement": "drug dissociation ratio", "setting": "pH8.0, 36°C, day 4", "result": 2.8, "unit": "%"}, {"measurement": "drug dissociation ratio", "setting": "pH8.0, 36°C, day 5", "result": 3.8, "unit": "%"}, {"measurement": "drug dissociation ratio", "setting": "pH8.0, 36°C, day 6", "result": 4.3, "unit": "%"}, {"measurement": "drug dissociation ratio", "setting": "pH8.0, 36°C, day 7", "result": 2.8, "unit": "%"}]}, {"substance": "Diclofenac(1-amino-2-propanol)-hyaluronic acid", "values": [{"measurement": "Content of dissociated diclofenac (w/w %)", "setting": "[3]; 1% in sodium citrate buffer pH 5.1, 40°C, after 4 weeks", "result": 0.00, "unit": "w/w %"}, {"measurement": "Content of dissociated diclofenac (w/w %)", "setting": "[3]; 1% in sodium citrate buffer pH 5.1, immediately after dissolution", "result": 0.00, "unit": "w/w %"}, {"measurement": "diclofenac dissociation ratio", "setting": "[4]; 1% in sodium citrate buffer pH 5.1, 25°C, 0 y (year)", "result": 0.0, "unit": "%"}, {"measurement": "diclofenac dissociation ratio", "setting": "[4]; 1% in sodium citrate buffer pH 5.1, 25°C, 0.5 y (year)", "result": 1.4, "unit": "%"}, {"measurement": "diclofenac dissociation ratio", "setting": "[4]; 1% in sodium citrate buffer pH 5.1, 25°C, 1 y (year)", "result": 2.7, "unit": "%"}, {"measurement": "diclofenac dissociation ratio", "setting": "[4]; 1% in sodium citrate buffer pH 5.1, 40°C, 0 m (month)", "result": 0.0, "unit": "%"}, {"measurement": "diclofenac dissociation ratio", "setting": "[4]; 1% in sodium citrate buffer pH 5.1, 40°C, 4 m (month)", "result": 3.5, "unit": "%"}, {"measurement": "diclofenac dissociation ratio", "setting": "[4]; 1% in sodium citrate buffer pH 5.1, 40°C, 6 m (month)", "result": 5.2, "unit": "%"}, {"measurement": "diclofenac dissociation ratio", "setting": "[4]; 1% in sodium citrate buffer pH 5.1, 40°C, 9 m (month)", "result": 7.4, "unit": "%"}, {"measurement": "diclofenac dissociation ratio", "setting": "[4]; 1% in sodium citrate buffer pH 5.1, 40°C, 12 m (month)", "result": 9.3, "unit": "%"}, {"measurement": "diclofenac dissociation ratio", "setting": "[4]; 1% in sodium citrate buffer pH 5.1, 60°C, day 0", "result": 0.0, "unit": "%"}, {"measurement": "diclofenac dissociation ratio", "setting": "[4]; 1% in sodium citrate buffer pH 5.1, 60°C, day 7", "result": 1.9, "unit": "%"}, {"measurement": "diclofenac dissociation ratio", "setting": "[4]; 1% in sodium citrate buffer pH 5.1, 60°C, day 14", "result": 3.3, "unit": "%"}, {"measurement": "diclofenac dissociation ratio", "setting": "[4]; 1% in sodium citrate buffer pH 5.1, 60°C, day 21", "result": 4.6, "unit": "%"}]}, {"substance": "diclofenac (1-amino-2-butanol)-chondroitin sulfate [Example A5-2]", "values": [{"measurement": "diclofenac dissociation ratio", "setting": "[5]; day 0", "result": 0.0, "unit": "%"}, {"measurement": "diclofenac dissociation ratio", "setting": "[5]; day 1", "result": 0.1, "unit": "%"}, {"measurement": "diclofenac dissociation ratio", "setting": "[5]; day 2", "result": 0.3, "unit": "%"}, {"measurement": "diclofenac dissociation ratio", "setting": "[5]; day 4", "result": 0.6, "unit": "%"}, {"measurement": "diclofenac dissociation ratio", "setting": "[5]; day 8", "result": 1.0, "unit": "%"}]}]}
